Source: publication PMC10974945, “Targeting MutT Homolog 1 (MTH1) for Breast Cancer Suppression by Using a Novel MTH1 Inhibitor MA−24 with Tumor-Selective Toxicity” (Pharmaceuticals, 2024)

Experiments:
MCF−7 cells = assay: MTT cell viability/proliferation assay, MCF−7; settings: compound concentration 200 μM
MTH1 = MTH1 (Homo sapiens, UniProt P36639); assay: MTH1 enzymatic inhibition, malachite green colorimetric assay; settings: read-out: IC50 to MTH1 (mean ± SD); malachite green staining assay, dGTP substrate

SMILES | Inhibition (%) (Mean ± SD) of MCF−7 cell proliferation (MCF−7 cells) | IC50 (MTH1) [nM]
CNc1cc(Nc2cccc(Cl)c2Cl)nc(N)n1 | 11.8 ± 4.5 | –
Nc1nc(Nc2ccccc2)cc(NC2CC2)n1 | 44.2 ± 8.4 | –
CNc1cc(Nc2cccc(F)c2)nc(N)n1 | 28.1 ± 1.5 | > 500
CNc1nc(N)nc(NCCc2ccccc2)n1 | 27.3 ± 4.2 | –
CNc1cc(Nc2ccccc2F)nc(N)n1 | 30.3 ± 4.1 | –
CNc1nc(N)nc(Nc2cccc(Cl)c2Cl)n1 | 52.1 ± 2.9 | –
CCNc1cc(Nc2ccccc2)nc(N)n1 | 37.8 ± 8.8 | –
